Values quoted from earlier work as cited in patent US10028966B2 (Avalyn Pharma Inc., priority 2014, dated 2018).

Details: CFC MDI, 2 mg per puff, healthy volunteers; cited from earlier work

In the case of L-lysine-N-acetylcysteinate [NAL], the “fraction of dose able to reach the lungs” value is listed as “approximately 10%”.
